# According to paper PMC8541911 (Molecular cell, 2021):
# Tested on: μ-opioid receptor (μOR)
# Format: cell-based
substance,measurement,value
Buprenorphine hydrochloride,Classification of agonism and bias,G protein-biased partial agonist
